The source of these data is PubChem BioAssay AID1479 (National Center for Advancing Translational Sciences (NCATS), 2009).

The experiment is described as follows: Total Fluorescence Counterscreen for Inhibitors of the Interaction of Thyroid Hormone Receptor and Steroid Receptor Coregulator 2. As to conditions: TRb/SRC2 Texas Red total fluorescence interference. A general note: Counterscreens check selectivity or assay interference.

Only a part is listed here, and it is no random draw. The source made the active and inactive calls. The call rests on the fitted dose curve; in most records, active means well fitted curve in either direction with a large enough effect; inconclusive means small, poorly fitted or top-dose-only effect; inactive means flat fitted curve, though single readings scatter.
On the % scale 0 is the no-effect control and ±100 the full control effect.

Consider `Cc1cc(C)cc(OP(C)(N)=O)c1` (stereo not drawn), for which, for the setting “at 106 µM (top of the series)”, the fluorescence change, negative = quenching was inactive: -1.41%.
Same read-out and setting: the same measure for `COc1ccc(OP(C)(=O)Nc2cccc(F)c2)cc1` (stereo not drawn): inactive: -0.999%.
With `COc1ccccc1OP(C)(=O)Nc1cc(Cl)ccc1C` (stereo not drawn), the fluorescence change, negative = quenching (at 53 µM (top of the series)) was inactive: 1.51%.
With `Cc1ccc(NP(C)(=O)Oc2ccccc2)c(C)c1` (stereo not drawn), the fluorescence change, negative = quenching (at 106 µM (top of the series)) was inactive: 0.24%.
`COc1ccccc1OP(C)(=O)Nc1ccc(C)cc1` (stereo not drawn): the fluorescence change, negative = quenching (at 106 µM (top of the series)) was inactive: 0.0863%.
Still for that read-out and setting: the same measure for `CCOC(=O)c1ccc(NP(C)(=O)Oc2ccccc2)cc1` (stereo not drawn): inactive: -0.1%; for `O=[N+]([O-])c1ccc2c(c1)C=Nc1ccccc1O2`: inactive: -1.54%.
Same read-out and setting: the same measure for `O=C(O)C(O)(c1ccccc1)c1ccccc1`: inactive: -2.13%; for `Cc1cccc(C)c1OP(C)(N)=O` (stereo not drawn): inactive: 2.42%; for `CC(C)(C)c1ccc(OP(C)(=O)Nc2ccc(SC(F)(F)F)cc2)cc1` (stereo not drawn): inactive: -3.9%.
The same measure, in the same setting: to `O=[N+]([O-])[O-].[NH4+]` belongs inactive: -0.607%.
`CP(=O)(Nc1ccccn1)Oc1ccc(Cl)cc1` (stereo not drawn): the fluorescence change, negative = quenching (at 106 µM (top of the series)) was inactive: -0.0029%.
The same measure, in the same setting: to `CN(C)CCS` belongs inactive: -2.83%; to `CCOC(=O)c1ccc(NP(C)(=O)Oc2ccc(OC)cc2)cc1` (stereo not drawn), inactive: -0.0827%.
On the same count and under the same terms, the same measure for `CCOP(C)(=S)SCC(=O)NC(C)C(=O)O` (stereo not drawn): inactive: 1.18%; for `Cc1cc(C)cc(OP(C)(=O)Nc2ccc(SC(F)(F)F)cc2)c1` (stereo not drawn): inactive: 0.875%.
On to `CCc1ccc(OP(C)(=O)N2CCN(c3ccc([N+](=O)[O-])cc3)CC2)cc1` (stereo not drawn), for which, under “at 106 µM (top of the series)”, the fluorescence change, negative = quenching is inactive: -8.01%.
As to `CP(=O)(NC(=O)Nc1ccccc1)Oc1ccccc1` (stereo not drawn), the fluorescence change, negative = quenching (at 106 µM (top of the series)) was inactive: -1.05%.
Turning to `CP(=O)(Oc1ccccc1)OC(c1ccccc1)C(F)(F)F` (stereo not drawn), the fluorescence change, negative = quenching (at 106 µM (top of the series)) was inactive: -1.16%.
The same measure, in the same setting: the same measure for `Cc1cccc(C)c1OP(C)(=O)Nc1ccc(SC(F)(F)F)cc1` (stereo not drawn): inactive: 1.13%.
The same measure, in the same setting: the same measure for `CP(=O)(Nc1ccc(SC(F)(F)F)cc1)Oc1ccc(Cl)cc1` (stereo not drawn): inactive: -0.436%; for `CP(=O)(Nc1ccccc1Br)Oc1ccccc1` (stereo not drawn): inactive: 2.39%; for `COc1ccccc1OP(C)(=O)Nc1ccccc1` (stereo not drawn): inactive: -5.74%.
The same measure, in the same setting: the same measure for `CP(=S)(Nn1cnnc1)Oc1ccccc1` (stereo not drawn): inactive: 0.151%; for `CP(=O)(Nc1ccc(SC(F)(F)F)cc1)Oc1ccccc1` (stereo not drawn): inactive: -2.67%.
On to `CCCOc1ccc(NP(C)(=O)Oc2ccc(Cl)cc2)cc1` (stereo not drawn), for which the fluorescence change, negative = quenching (at 106 µM (top of the series)) was inactive: 0.435%.
Consider `COc1ccccc1OP(C)(=O)Nc1c(C)cccc1C` (stereo not drawn), for which the fluorescence change, negative = quenching (at 106 µM (top of the series)) was inactive: -3.64%.
Still for that read-out and setting: to `CN1CCCCC1COC(=O)C1(O)c2ccccc2CCc2ccccc21` (stereo not drawn) belongs inactive: -0.467%; to `O=[N+]([O-])c1cc([N+](=O)[O-])c(Nc2nnnn2CCO)c([N+](=O)[O-])c1`, inactive: -2.25%.
Same read-out and setting: to `Cc1nc2ccc3ccccc3c2s1.O=[N+]([O-])c1cc([N+](=O)[O-])c(O)c([N+](=O)[O-])c1` belongs inactive: -1.32%; to `CC(C)N(CCCl)C(C)C`, inactive: -0.454%.
Same read-out and setting: to `O=[N+]([O-])c1cc([N+](=O)[O-])c(-n2nnc3ccccc32)c([N+](=O)[O-])c1` belongs inactive: -1.32%; to `Cc1ccc(C)c(NP(C)(=O)Oc2ccccc2)c1` (stereo not drawn), inactive: 2.82%; to `CP(=O)(Nc1cccc(Br)c1)Oc1ccccc1` (stereo not drawn), inactive: 0.456%.
With `Cc1cc(C)cc(OP(C)(=O)Nc2ccccn2)c1` (stereo not drawn), for the setting “at 106 µM (top of the series)”, the fluorescence change, negative = quenching was inactive: 1.67%.
On the same count and under the same terms, the same measure for `CCOC(=O)c1ccc(NP(C)(=O)Oc2cc(C)cc(C)c2)cc1` (stereo not drawn): inactive: -1.19%; for `Cc1cc(C)cc(OP(C)(=O)Nc2ccc(C)cc2C)c1` (stereo not drawn): inactive: -5.02%.
Same read-out and setting: to `COc1ccccc1OP(C)(=O)Nc1cccc(Br)c1` (stereo not drawn) belongs inactive: 1.16%.
Same read-out and setting: the same measure for `CC1=NCCc2c1[nH]c1ccccc21.O=[N+]([O-])c1cc([N+](=O)[O-])c(O)c([N+](=O)[O-])c1`: inactive: 0.739%.
Regarding `Cc1ccc([N+](=O)[O-])cc1[N+](=O)[O-]`, the fluorescence change, negative = quenching is inactive: -3.8% (at 106 µM (top of the series)) and inactive: -4.44% (at 201 µM (top of the series)).
As to `O=[N+]([O-])OCC(CO[N+](=O)[O-])(CO[N+](=O)[O-])CO[N+](=O)[O-]`, the fluorescence change, negative = quenching (at 106 µM (top of the series)) is inactive: -1.16%.
With `CCOP(=S)(CC)Oc1cc(Cl)c(Cl)cc1Cl` (stereo not drawn), under “at 201 µM (top of the series)”, the fluorescence change, negative = quenching is inactive: 1.4%.
`O=[N+]([O-])c1cccc([N+](=O)[O-])c1`: the fluorescence change, negative = quenching runs as follows: (at 106 µM (top of the series)) inactive: -1.26%; (at 201 µM (top of the series)) inactive: -2.11%.
On to `CP(=O)(Nc1ccccc1)Oc1ccc(F)cc1` (stereo not drawn), for which, where the note is “at 106 µM (top of the series)”, the fluorescence change, negative = quenching was inactive: 0.784%.
On the same count and under the same terms, the same measure for `CCCCCOc1ccc(NP(C)(=O)Oc2ccc(Cl)cc2Cl)cc1` (stereo not drawn): inactive: -2.08%.
On the same count and under the same terms, to `CCN(CC)CCCOC(=O)C(O)(c1ccccc1)C1CCCCC1` (stereo not drawn) belongs inactive: 1.92%.
